Values after ≈ are worked out from the molar mass of the structure shown. Bounds are passed on as bounds.

In test [1] the test system is S. mutans bacteriocin production against S. sanguinis. As to the kind of experiment: Bacteriocin overlay assay, S. mutans spotted on S. sanguinis. Conditions: analog 20 μM with CSP1 20 μM, 16 h, p < 0.05 vs CSP1. The test is classed as cell-based, Streptococcus mutans. On the procedure: (§1) During the formation of complex biofilm such as dental plaque, the ability of S. mutans to compete with other commensal species determines the success of the cariogenesis process. S. mutans uses antibacterial peptides, namely, bacteriocins, to overcome and subvert the composition of dental microbiota. We investigated the production of bacteriocins using the overlay assay. Overnight cultures of S. mitis, S. oralis, S. sanguinis, P. aeruginosa, F. nucleatum, or P. gingivalis were diluted 1:100 in BHI or TS broth and incubated at 37 °C until they reached an OD620 of 0.3. Cultures were added with agar (BD Difco^TM Agar) at the final concentration of 1.5% w/v and transferred in plates. Overnight cultures of S. mutans were diluted 1:100 in BHI and added with peptides (20 μM) or the vehicle with or without CSP1. Culture media were supplemented with agar to reach the final concentration of 0.7% w/v. The solutions were spotted on the surface of agar plates prepared as described above. […]
(§2) Spots (10 for each experimental group) were acquired and analyzed using NIH Image J software (version 1.53t August 2022, https://imagej.nih.gov/ij/index.html; accessed on 7 September 2022). The appearance of a clear area on the plate (bacterial growth inhibition) was evaluated as indicative of bacteriocin activity. The diameters of the area were measured in a blinded fashion.

Another test concerns S. oralis. The test is classed as cell-based, Streptococcus oralis. The conditions noted are these: peptides 0–50 μM, 16 h, 37 °C, microaerophilic, A620 nm, three separate experiments. The text has this: (§3) Streptococcus mutans Clarke (strain designation NCTC 10449), Pseudomonas aeruginosa (Schroeter) Migula (strain designation PAO1), Fusobacterium nucleatum, subspecies nucleatum (strain VPI 4355), and Porphyromonas gingivalis (strain 2561) were purchased from ATCC (LGC Standards Srl, Milan, Italy). Streptococcus mitis, Streptococcus oralis, and Streptococcus sanguinis were obtained from clinical isolates and characterized by morphological, biochemical, and molecular typing. S. mutans, S. mitis, S. oralis, and S. sanguinis were maintained in Brain Heart Infusion (BHI) broth or agar under microaerophilic conditions. P. aeruginosa was maintained in trypticase soy (TS) agar or broth. F. nucleatum was maintained in TS agar or broth with defibrinated sheep blood under anaerobic conditions. P. gingivalis was maintained in ATCC Medium 2722 supplemented with TS broth or agar under anaerobic conditions. […]
(§4) The antimicrobial activities of the tested peptides were assessed through the determination of the minimum inhibitory concentration (MIC) standardized by the Clinical and Laboratory Standards Institute. […] At the end of incubation, bacterial growth was recorded using a microplate reader (Varioskan Lux Reader; Thermo Fisher Scientific, Milan, Italy) by quantifying the adsorption at 620 nm. […]

A further test has as its system F. nucleatum. The format is cell-based, Fusobacterium nucleatum. The conditions noted are these: peptides 0–50 μM, 16 h, 37 °C, anaerobic, A620 nm, three separate experiments.
Text: as §3, §4

The test system of the next test is S. mitis. The test is classed as cell-based, Streptococcus mitis. Conditions: peptides 0–50 μM, 16 h, 37 °C, microaerophilic, A620 nm, three separate experiments.
Text: as §3, §4

The next test relates to P. aeruginosa. The test is classed as cell-based, Pseudomonas aeruginosa. Conditions: peptides 0–50 μM, 16 h, 37 °C, aerobic, A620 nm, three separate experiments.
Text: as §3, §4

The subject of test [2] is S. mutans bacteriocin production against S. oralis. The test can be described thus: Bacteriocin overlay assay, S. mutans spotted on S. oralis. The test is classed as cell-based, Streptococcus mutans. Conditions: analog 20 μM with CSP1 20 μM, 16 h, p < 0.05 vs CSP1. On the procedure:
as §1, §2

The next test deals with P. gingivalis. The format is cell-based, Porphyromonas gingivalis. The conditions noted are these: peptides 0–50 μM, 16 h, 37 °C, anaerobic, A620 nm, three separate experiments.
Text: as §3, §4

For test [3], the system named is S. mutans bacteriocin production against S. mitis. The test can be described thus: Bacteriocin overlay assay, S. mutans spotted on S. mitis. The test is classed as cell-based, Streptococcus mutans. Conditions: analog 20 μM with CSP1 20 μM, 16 h, p < 0.05 vs CSP1. On the procedure: as §1, §2
A further test has as its system S. sanguinis. The test is classed as cell-based, Streptococcus sanguinis. The conditions noted are these: peptides 0–50 μM, 16 h, 37 °C, microaerophilic, A620 nm, three separate experiments.
Text: as §3, §4

The test system of the next test is S. mutans. The format is cell-based, Streptococcus mutans. The conditions noted are these: peptides 0–50 μM, 16 h, 37 °C, microaerophilic, A620 nm, three separate experiments.
Text: as §3, §4

As for `CC[C@H](C)[C@H](NC(=O)[C@H](Cc1ccccc1)NC(=O)[C@H](CC(=O)O)NC(=O)[C@H](CCCNC(=N)N)NC(=O)[C@H](Cc1ccccc1)NC(=O)[C@H](Cc1ccccc1)NC(=O)[C@H](CCCCN)NC(=O)[C@H](CO)NC(=O)[C@H](CC(C)C)NC(=O)[C@H](CCCNC(=N)N)NC(=O)[C@H](CCSC)NC(=O)C[C@@H](N)CCC(=O)O)C(=O)N[C@@H](CC(C)C)C(=O)N[C@@H](CCC(N)=O)C(=O)N[C@@H](CCCNC(=N)N)C(=O)N[C@@H](CCCCN)C(=O)N[C@@H](CCCCN)C(=O)O` [CSP1hβE], the “Effect on the CSP1-induced antibacterial effects against S. sanguinis” value in test [1] is “did not report significant effects”. The “Minimum inhibitory concentration (MIC), S. oralis” value in the test on S. oralis was 20 µM (≈ 45.1 µg/mL). For the same compound, the “Minimum inhibitory concentration (MIC), F. nucleatum” value in the test on F. nucleatum was greater than 50 µM. Further, the “Minimum inhibitory concentration (MIC), S. mitis” value with S. mitis was determined as 20 µM (≈ 45.1 µg/mL). In the test with P. aeruginosa, the “Minimum inhibitory concentration (MIC), P. aeruginosa” value is greater than 50 µM. In addition, the “Effect on the CSP1-induced antibacterial effects against S. oralis” value in test [2] is on record as “did not report significant effects”. Further, the “Minimum inhibitory concentration (MIC), P. gingivalis” value with P. gingivalis is greater than 50 µM. For the same compound, in [3], the “Effect on the CSP1-induced antibacterial effects against S. mitis” value was “did not report significant effects”. Besides, the “Minimum inhibitory concentration (MIC), S. sanguinis” value in the test with S. sanguinis turned out to be 20 µM (≈ 45.1 µg/mL). The “Minimum inhibitory concentration (MIC), S. mutans” value in the test with S. mutans was determined as 20 µM (≈ 45.1 µg/mL).
